Assay: Plasma pharmacokinetics after multiple oral doses in advanced cancer patients
Conditions: fasting, 1 mg QD or BID - 30 mg BID

For `O=C(NOC[C@H](O)CO)c1ccc(F)c(F)c1Nc1ccc(I)cc1F` [Compound 1, N-[(R)-2,3-dihydroxy-propoxy]-3,4-difluoro-2-(2-fluoro-4-iodo-phenylamino)-benzamide], the “dose proportionality of Cmax and AUC” value was “roughly dose proportional”.

— patent US20060154990A1, “Use of MEK inhibitors in treating abnormal cell growth” (AGOURON PHARMACEUTICALS, INC., priority 2004, published 2006)
